Reference: US20150342943A1, “METHODS OF TREATING LIVER DISEASE” (Gilead Sciences, Inc., priority 2014, published 2015)
“And” between values parts separate entries of the source, which are not always exact repeats. Equal values may be shown once. Read-outs that look alike come from different tables or passages of the source.

Key:
[1] = system: male C57BL/6 mice; experiment: Interventional NASH model (treatment from day 240 of high fat, high cholesterol, high sugar diet); type: in vivo; details: for reduction of COL1α(I) synthesis rate / reduction of COL1α(III) synthesis rate / reduction of COLα1(V) synthesis rate: additional analyses (Table 2)
[2] = system: TAA-induced liver fibrosis; experiment: TAA-induced liver fibrosis; details: in vivo
[3] = system: Mdr2^−/− PSC model; details: FIG. 22
[4] = system: HSCs; experiment: Quantitative RT-PCR of TGF-β1-induced gene transcription in HSCs; type: cell-based, human
[5] = system: Mdr2^−/− BALB/c; experiment: Interventional PSC model; type: in vivo, mice
[6] = system: male C57BL/6 mice
[7] = Example 3, 80 days of treatment
[8] = NASH diet with 0.15% Compound 1 at Day 315
[9] = 6 weeks treatment, vs control group
[10] = day 360, vs fast food diet mice

## O=C(Nc1cccc(-c2nncn2C2CC2)c1)c1cc(-n2cnc(C3CC3)c2)ccn1 [Compound 1]
[1]; 0.15% of compound 1
  activation of p38: reduced
[1]; Example 3
  AST/ALT, serum cholesterol, and cholesterol/triglyceride: statistically significant improvements
  body weight: body weight loss
  normalizing fasting blood glucose levels: 17.1%
  normalizing insulin levels: 13.7%
  synthesis rates of extracellular matrix proteins (Col1a1, Col1a3, and Col1a5): affected
[1]; [7]
  reduction in hepatic HYP content: 44%
  reduction in percent collagen area by 2nd harmonic imaging: 84%
  reduction of hepatic steatosis: 33%
[1]; Example 4, FIG. 23B
  reduction of hepatic steatosis: 61.9%
[1]; [8]
  HA serum level (ELISA): 680.9 ± 181.3 ng/mL
  HYP: 612 ± 109 µg/mL
  HYP synthesis: 5.0 ± 1.9%
  IL-6 serum level (ELISA): 13.7±7 pg/mL and 13.7 ± 7 ^ pg/mL
  Insoluble COL1α(I) synthesis: 3 ± 0.7%
  Insoluble COL1α(III) synthesis: 4.9 ± 2.0%
  Insoluble COLα1(V) synthesis: 4.8 ± 0.4%
  OPN serum level (ELISA): 61.9±23 ng/mL and 61.9 ± 23 ^ ng/mL
  Soluble COL1α(I) synthesis: 18.7 ± 5.7%
  Soluble COL1α(III) synthesis: 25.7 ± 1.2%
  Soluble COLα1(V) synthesis: 10.7 ± 3.1%
  TIMP1 serum level (ELISA): 1841±532.3 pg/mL and 1841 ± 532.3^ pg/mL
  αSMA synthesis: 59.6 ± 6.3%
[1]; additional studies, FIG. 30
  relative hydroxyproline levels: decrease
[1]; after treatment
  steatosis compared to day 0 of the control group: Statistically less
[1]; data not shown
  expression of p-p38: decreased expression
[1]; day 80, D2O labeling (text b311)
  hydroxyproline synthesis: 1.8%
[1]; day 80, control 20.1%
  positive steatotic area: 7.8%
[1]; day 80 of the treatment
  hepatic hydroxyproline levels: 612 µg/g
[1]; day 315, vs no treatment
  reduction of circulating ALT: 32.3%
  reduction of circulating AST: 20.5%
  reduction of circulating cholesterol: 9.4%
[1]; day 315, untreated 422.1 pg/dL
  fasting insulin levels: 274.6 pg/dL
[1]; day 315, untreated 117.8 mg/dL
  fasting blood glucose levels: 79.1 mg/dL
[1]; immunoblot, vs untreated mice
  reduction of p-JNK1 level: 86%
  reduction of p-MKK4 level: 53%
[1]; insoluble fraction, FIG. 24B
  reduction of Colα1(I) synthesis: 46.2%
  reduction of Colα1(III) synthesis: 59.8%
  reduction of Colα1(V) synthesis: 47.1%
[1]; insoluble fraction
  reduction of COL1α(I) synthesis rate: 38%
  reduction of COL1α(III) synthesis rate: 38%
  reduction of COLα1(V) synthesis rate: 60%
[1]; serum, vs NASH diet Day 315
  reduction of HA level: 26%
  reduction of IL-6 level: 35%
  reduction of OPN level: 33%
  reduction of TIMP1 level: 41%
[1]; soluble fraction, FIG. 24A
  reduction of Colα1(I) synthesis: 38.2%
  reduction of Colα1(III) synthesis: 33.9%
  reduction of Colα1(V) synthesis: 28.2%
[1]; soluble fraction
  reduction of COL1α(I) synthesis rate: 31%
  reduction of COL1α(III) synthesis rate: 37%
  reduction of COLα1(V) synthesis rate: 45%
[2]
  TAA-induced fibrosis progression: blocked
[3]
  liver fibrosis by liver hydroxyproline and area of tissue collagen: reduced
[4]
  TGF-β signaling in hepatic stellate cells: blocked
[5]; [9]
  reduction of hepatic collagen deposition (hydroxyproline levels): 37%
  reduction of serum ALT levels: 38%
[5]; end of study
  liver weight: decreased
[5]; end of study, control 10.1±0.2
  portal venous pressure (PVP): 8.52±0.3 mmHg
[6]; 90 and 180 days, vs untreated
  fibrosis severity (F-score): lower
  hepatic steatosis grade: lower
[6]; 180 days
  reduction in liver collagen content (hydroxyproline assay): 52%
  reduction in percent collagen area (PCA) by quantitative morphometry: 71%
  reduction of hepatic steatosis: 59.8%
  reduction of picrosirius red positive area: 70%
[6]; 180 days, untreated 4.4%
  percent area staining positive for picrosirius red: 1.3%
[6]; 180 days, untreated 13.7%
  level of hepatic steatosis by histology: 5.5%
[6]; 270 days
  ALT: reduction
  AST: reduction
  AUC glucose during oral glucose tolerance test: no statistically significant differences
  AUC insulin levels during oral glucose tolerance test: statistically significant lower
  fasting insulin levels: statistically significant lower
  serum cholesterol levels: reduction
[6]; FIGS. 13A and 13B
  steatosis and fibrosis progession: blocked or prevented
[6]; day 360
  Hepatic HYP levels: 471 µg/g
  reduction in fasting insulin levels: 72%
[6]; day 360, FIG. 14
  glucose metabolism: improvement
[6]; [10]
  reduction of AST: 53%
  reduction of cholesterol: 34%
  reduction of hepatic HYP levels: 49%
[6]; over 270 day treatment, vs high fat diet fed untreated animals
  body weight gain: gained less weight

## Cc1cc(F)c(C(=O)Nc2cccc(-c3nncn3[C@@H](C)C(F)(F)F)n2)cc1-n1cnc(C2CC2)c1 [Compound 2]
[4]; pre-treated HSCs, TGF-β1 5 ng/ml for 48 hrs
  TGF-β1-induced responses in RNA levels of αSMA, COL1α1, TIMP1, and lumican: blocked or inhibited
